Source: ChEMBL document CHEMBL5131543, “Studying Lipophilicity Trends of Phosphorus Compounds by 31P-NMR Spectroscopy: A Powerful Tool for the Design of P-Containing Drugs” (J Med Chem, 2022)

Experiment: Lipophilicity, logP of compound at pH 7.4 by HPLC analysis
Settings: buffer

Compound: CCOP(C)(=S)OCC
- logP: 2.08
